This assay has as its target Human T-type calcium channel (Cav 3.2) (Homo sapiens, UniProt O95180). Briefly: Calcium influx inhibition assay. The settings on record: read-out: C50; T-type calcium channel inhibition concentration; Cav 3.2 expressing HEK293 cells, FLIPR Calcium 4 fluorescence. As for the experimental part: Human T-type calcium channel (Cav 3.2) expressing HEK293 cells were obtained from Prof. Edward Perez-Reyes, University of Virginia, USA. The calcium-sensitive fluorescent dye used was FLIPR Calcium 4 Assay Kit (Molecular Devices).
To a black 96-well plate with a clear bottom coated with type I collagen, the human T-type calcium channel (Cav 3.2) expressing HEK293 cells were seeded and cultured overnight, and the culture medium was removed. A solution of the calcium-sensitive fluorescent dye was added, and the whole was incubated at 37° C. in an atmosphere of 5% carbon dioxide for 30 minutes. To the plate, a diluted solution of a compound was added, and the whole was further incubated at 37° C. in an atmosphere of 5% carbon dioxide for 30 minutes. While fluorescence was continuously analyzed from the bottom with a FlexStation 3 (Molecular Devices), a calcium solution was added. […] From the rise in the fluorescence from the base line, the inhibition percentage was calculated. The logarithms of compound concentrations were plotted with respect to the inhibition activities to obtain an IC50 value (50% inhibition concentration).

By UniProt entry, the sequences of proteins in these tests, tags left out.
UniProt O95180, whole entry: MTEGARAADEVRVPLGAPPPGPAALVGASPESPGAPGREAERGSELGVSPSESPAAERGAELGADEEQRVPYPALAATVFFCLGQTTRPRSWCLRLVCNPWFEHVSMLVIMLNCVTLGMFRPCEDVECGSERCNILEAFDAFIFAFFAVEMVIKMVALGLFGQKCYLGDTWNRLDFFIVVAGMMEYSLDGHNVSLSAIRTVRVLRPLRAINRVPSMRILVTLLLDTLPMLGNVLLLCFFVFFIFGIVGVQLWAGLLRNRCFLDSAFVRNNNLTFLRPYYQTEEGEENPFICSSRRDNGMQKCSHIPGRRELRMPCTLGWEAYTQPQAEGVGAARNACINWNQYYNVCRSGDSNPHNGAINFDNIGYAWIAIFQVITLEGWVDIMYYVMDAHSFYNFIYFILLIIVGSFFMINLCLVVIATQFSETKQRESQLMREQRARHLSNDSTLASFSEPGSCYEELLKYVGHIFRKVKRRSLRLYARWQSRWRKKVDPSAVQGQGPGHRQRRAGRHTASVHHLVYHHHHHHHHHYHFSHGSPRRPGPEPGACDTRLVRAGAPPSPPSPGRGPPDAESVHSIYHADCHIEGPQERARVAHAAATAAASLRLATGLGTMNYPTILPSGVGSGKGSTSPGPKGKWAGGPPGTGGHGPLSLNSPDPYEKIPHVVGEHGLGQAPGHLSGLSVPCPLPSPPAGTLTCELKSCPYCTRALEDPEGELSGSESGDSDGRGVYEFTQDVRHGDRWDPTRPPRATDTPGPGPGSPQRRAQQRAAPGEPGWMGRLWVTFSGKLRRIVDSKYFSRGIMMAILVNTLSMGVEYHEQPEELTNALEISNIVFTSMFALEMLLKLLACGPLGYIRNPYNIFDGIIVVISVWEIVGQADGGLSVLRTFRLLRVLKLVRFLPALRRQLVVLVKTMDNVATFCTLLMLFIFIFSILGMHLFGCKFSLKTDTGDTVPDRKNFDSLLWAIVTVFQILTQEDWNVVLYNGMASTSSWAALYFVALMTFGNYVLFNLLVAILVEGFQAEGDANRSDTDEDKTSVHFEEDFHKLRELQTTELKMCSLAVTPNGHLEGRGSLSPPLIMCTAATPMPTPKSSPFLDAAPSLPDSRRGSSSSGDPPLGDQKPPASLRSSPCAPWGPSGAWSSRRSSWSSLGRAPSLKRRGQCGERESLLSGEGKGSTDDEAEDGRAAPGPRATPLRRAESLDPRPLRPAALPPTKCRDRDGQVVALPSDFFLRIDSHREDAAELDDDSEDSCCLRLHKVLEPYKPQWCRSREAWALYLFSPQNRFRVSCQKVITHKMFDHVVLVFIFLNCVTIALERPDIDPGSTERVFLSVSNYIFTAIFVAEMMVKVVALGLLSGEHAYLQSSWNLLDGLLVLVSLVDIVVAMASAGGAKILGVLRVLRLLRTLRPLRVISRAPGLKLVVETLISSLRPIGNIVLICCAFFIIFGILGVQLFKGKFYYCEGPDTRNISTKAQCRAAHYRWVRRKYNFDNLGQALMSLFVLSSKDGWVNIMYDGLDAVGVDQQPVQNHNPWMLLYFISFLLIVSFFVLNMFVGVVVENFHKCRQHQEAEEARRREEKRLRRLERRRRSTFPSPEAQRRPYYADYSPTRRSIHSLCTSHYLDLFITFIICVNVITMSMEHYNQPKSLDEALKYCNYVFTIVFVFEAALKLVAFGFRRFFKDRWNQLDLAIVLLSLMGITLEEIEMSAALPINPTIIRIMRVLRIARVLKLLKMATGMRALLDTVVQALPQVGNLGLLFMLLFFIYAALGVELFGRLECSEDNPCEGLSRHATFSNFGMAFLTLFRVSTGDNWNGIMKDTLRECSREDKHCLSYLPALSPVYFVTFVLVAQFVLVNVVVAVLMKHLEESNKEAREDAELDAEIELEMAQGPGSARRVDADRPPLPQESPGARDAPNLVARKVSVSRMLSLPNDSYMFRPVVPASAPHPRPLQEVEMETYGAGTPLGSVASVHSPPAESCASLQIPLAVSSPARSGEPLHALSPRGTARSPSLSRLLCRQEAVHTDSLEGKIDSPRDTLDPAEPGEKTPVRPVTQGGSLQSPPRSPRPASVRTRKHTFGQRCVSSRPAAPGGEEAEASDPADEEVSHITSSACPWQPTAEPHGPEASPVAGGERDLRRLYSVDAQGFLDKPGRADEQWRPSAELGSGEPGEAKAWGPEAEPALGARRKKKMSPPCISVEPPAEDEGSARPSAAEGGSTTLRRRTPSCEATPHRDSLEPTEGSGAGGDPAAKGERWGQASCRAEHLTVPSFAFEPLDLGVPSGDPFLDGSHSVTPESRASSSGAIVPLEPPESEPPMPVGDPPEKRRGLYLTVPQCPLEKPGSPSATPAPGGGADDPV

On to `COc1ccc2c(c1)C(O)CN(c1ncn(Cc3ccc(OS(=O)(=O)C(F)(F)F)nc3)c(=O)n1)C2` (stereo not shown), for which the IC50 came to 35 nM.

Source of the values: patent US20160237071A1, “T-TYPE CALCIUM CHANNEL INHIBITOR” (NISSAN CHEMICAL INDUSTRIES, LTD., priority 2013, published 2016).
